Results: patent US20260083674A1, “OXAZOLIDINONE LIPOSOME COMPOSITIONS” (priority 2021, published 2026)

Columns and labels:
[1] = tested on: M. tuberculosis Erdman or H37Rv vs VERO or HepG2 cell lines; test: Selectivity Index (IC50 mammalian cells / MIC bacteria); set-up: species or system Mycobacterium tuberculosis; conditions: for Selectivity Index (SI) H37Rv/HepG2: IC50 HepG2 / MIC H37Rv; for Selectivity Index (SI) H37Rv/VERO: IC50 VERO / MIC H37Rv
[2] = Liposome loading: encapsulated drug-to-lipid ratio and encapsulation efficiency; assay type: physicochemical; conditions: 1 N TEA-SOS liposomes, DL0 500 g/mol PhL, pH 4.38
Procedure: 1. The lipid components (phospholipid (PhL), cholesterol, and optionally—a PEG-lipid derivative and/or a lipid fluorescent label were combined in an amount of 100% ethanol equal to one-tenth of a volume (V) calculated to obtain lipid suspension with about 60 mM phospholipid and stirred at the temperature of 65-68° C. until complete dissolution of the lipids.
2. The ethanolic lipid solution was combined with volume V of the trapping agent solution (0.25-0.5 M ammonium sulfate or 1 N triethylammonium sucrose octasulfate) upon stirring at 65-68° C. until a uniform suspension was obtained.
3. […]
6. The lipid concentration in a purified extruded liposome preparation was determined using HPLC with UV detection, by measuring the concentration of cholesterol and correcting for the known phospholipid/cholesterol molar ratio. Alternatively, a spectrophotometric blue phosphomolybdate method was used to directly quantify the phospholipid content. […]
8. Purified liposomes of step 5 and the drug stock solution were combined in the presence of an osmotic agent (typically dextrose) and water in the amounts necessary to provide a desired drug-to-phospholipid (DL) ratio, the drug concentration in the range 1.5-3.3 mg/ml, at the osmolality equal to the measured osmolality of the trapping agent solution of step 2. […]

[3] = tested on: mitochondrial protein synthesis vs H37Rv M. tuberculosis; test: MPS selectivity index (MPS IC50 / MIC H37Rv)

Row | Compound | Selectivity Index (SI) H37Rv/HepG2 [1] | Selectivity Index (SI) H37Rv/VERO [1] | loading efficiency [2] [%] | SI-MPS MPS/H37 [3]
1 | CN(C)CCn1nnc(-c2ccc(-c3ccc(N4C[C@H](CO)OC4=O)cc3F)cn2)n1 [AKG-16] | 364.0 | 388.0 | 93.3 | 0.98
2 | CC(=O)NC[C@H]1CN(c2ccc(-c3ccc(-c4nnn(CCN(C)C)n4)nc3)c(F)c2)C(=O)O1 [AKG-38] | 1616.7 | 6583.3 |  | 0.69
